In one assay the test system is K562 cells. Briefly: Proliferation inhibition assay (WST-1). It is filed as cell-based. To be noted: Homo sapiens, K562, read-out: IC50, proliferation inhibition. An excerpt:
The HEL, SET2 and K562 human cell lines were purchased from the German Collection of Microorganisms and Cell Cultures (DSMZ, Braunschweig, Germany). Murine BaF/3 and BaF/3-EPOR cells expressing JAK2 wild-type (wt) or JAK2V617F were donated by R. Skoda (Basel, Switzerland).

The subject of assay [1] is SET2 cells. In words: Apoptosis by Annexin V flow cytometry. It is filed as cell-based, human. An excerpt:
Results are expressed ad percent viable cells compared to control wells containing vehicle (DMSO) only. The fraction of necrotic cells was identified as the double-positive Annexin V/propidium iodide cells. One representative of three similar experiments. *, P<0.05; **, P<0.01.
On the technique in general: Flow cytometry measures light scatter and fluorescence of single cells or particles in a stream.

The test system of assay [2] is JAK2, STAT5, and 4EBP1 in SET2 cells. Briefly: Western blot of mTOR and JAK/STAT signaling. It is filed as cell-based, human. As for the experimental part: Cells were resuspended in RIPA lysis buffer (50 mM pH 7.4 Tris-HCl, 150 mM NaCl, 1% NP-40, 1 mMEDTA) containing a proteinase inhibitor cocktail (Halt Protease Inhibitor Cocktail Kit, PIERCE, Rockford, Ill., US) and subjected to sodium dodecyl sulphate polyacrylamide gel electrophoresis separation and western blotting onto Immunoblot PVDF membrane (BioRad, Hercules, Calif., US), according to standard protocols.
SET2 cells were incubated for 24 h with increasing concentrations of the drugs, and the level of total and phosphorylated JAK2, STAT5, and 4EBP1 was analyzed by western blot. Tubulin was used for loading normalization. The results shown are representative of two to four similar experiments for the different drugs.
On the technique in general: Immunoblotting shows a protein as a band on a membrane.

The test system of the next assay is HEL cells. In words: Cell cycle distribution analysis by flow cytometry. It is filed as cell-based, human.
Assay [3] deals with SET2 cells. In words: Cell cycle distribution analysis by flow cytometry. It is filed as cell-based, human.

Experimental findings from patent US9993480B2, “mTOR/JAK inhibitor combination therapy” (NOVARTIS PHARMA AG, priority 2011, dated 2018) are described below.

Entries after “also recorded” stand apart in the source; their conditions may differ.

`N#CC[C@H](C1CCCC1)n1cc(-c2ncnc3[nH]ccc23)cn1` [Compound A, (3R)-3-cyclopentyl-3-[4-(7H-pyrrolo[2,3-d]pyrimidin-4-yl)-1H-pyrazol-1-yl]propanenitrile]: the IC50 in the assay on K562 cells was above 20 µM.
For the compound `CC(C)n1nc(-c2cc3cc(O)ccc3[nH]2)c2c(N)ncnc21` [PP242, 2-(4-amino-1-isopropyl-1H-pyrazolo[3,4-d]pyrimidin-3-yl)-1H-indol-5-ol], in the assay with SET2 cells [1], the “cell apoptosis (Annexin V-positive cells)” value is “modest, yet dose-dependent, cell apoptosis at highest concentrations; also recorded: some cell apoptosis as highest concentrations”. In addition, in assay [2], the “phosphorylated JAK2” value is “unaffected”, the “phosphorylation of 4E-BP1” value is “dose-dependently reduced phosphorylation; also recorded: inhibited the phosphorylation”, the “phosphorylation of STAT5” value is on record as “dose-dependently reduced phosphorylation; also recorded: appreciable decrease of STAT5 phosphorylation” and the “total JAK2” value is “unaffected”. The cell cycle effect result in the assay on HEL cells was “cell cycle arrest of SET2 and HEL cells in the G0/G1 phase”. The cell cycle effect result in the assay with SET2 cells [3] was “cell cycle arrest of SET2 and HEL cells in the G0/G1 phase”.
